Assays:
[1] = molecular target: T1, heparin lyase III (Pedobacter heparinus, UniProt Q59289); assay: GAG degrading enzyme challenge: heparin lyase III; type: in vitro ADME; settings: 0.2 mg/ml enzyme, 50 mM Tris, pH 7.2, 30° C., gel analysis
T1 construct: gift of Jian Liu, Univ. of North Carolina

Chains of the proteins cited; added tags and fusions are not shown. Residues count along the entry.
UniProt Q59289, 25-659: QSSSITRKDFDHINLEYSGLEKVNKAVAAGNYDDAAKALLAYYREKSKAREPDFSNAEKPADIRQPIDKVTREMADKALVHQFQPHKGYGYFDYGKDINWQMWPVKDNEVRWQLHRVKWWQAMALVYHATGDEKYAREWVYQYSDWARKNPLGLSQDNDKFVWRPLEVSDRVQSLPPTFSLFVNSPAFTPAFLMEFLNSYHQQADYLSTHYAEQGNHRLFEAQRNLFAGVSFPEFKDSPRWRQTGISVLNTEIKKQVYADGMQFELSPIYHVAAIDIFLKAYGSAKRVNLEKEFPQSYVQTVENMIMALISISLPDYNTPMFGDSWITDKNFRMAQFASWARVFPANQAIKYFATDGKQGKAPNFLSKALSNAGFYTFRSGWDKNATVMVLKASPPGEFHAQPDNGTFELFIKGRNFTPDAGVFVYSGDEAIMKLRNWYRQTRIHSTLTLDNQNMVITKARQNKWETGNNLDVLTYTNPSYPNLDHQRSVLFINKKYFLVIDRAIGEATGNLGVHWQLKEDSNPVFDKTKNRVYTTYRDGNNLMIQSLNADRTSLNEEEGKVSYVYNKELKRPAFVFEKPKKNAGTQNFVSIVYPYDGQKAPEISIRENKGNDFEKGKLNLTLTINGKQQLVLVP
UniProt C6XZB6, 26-772: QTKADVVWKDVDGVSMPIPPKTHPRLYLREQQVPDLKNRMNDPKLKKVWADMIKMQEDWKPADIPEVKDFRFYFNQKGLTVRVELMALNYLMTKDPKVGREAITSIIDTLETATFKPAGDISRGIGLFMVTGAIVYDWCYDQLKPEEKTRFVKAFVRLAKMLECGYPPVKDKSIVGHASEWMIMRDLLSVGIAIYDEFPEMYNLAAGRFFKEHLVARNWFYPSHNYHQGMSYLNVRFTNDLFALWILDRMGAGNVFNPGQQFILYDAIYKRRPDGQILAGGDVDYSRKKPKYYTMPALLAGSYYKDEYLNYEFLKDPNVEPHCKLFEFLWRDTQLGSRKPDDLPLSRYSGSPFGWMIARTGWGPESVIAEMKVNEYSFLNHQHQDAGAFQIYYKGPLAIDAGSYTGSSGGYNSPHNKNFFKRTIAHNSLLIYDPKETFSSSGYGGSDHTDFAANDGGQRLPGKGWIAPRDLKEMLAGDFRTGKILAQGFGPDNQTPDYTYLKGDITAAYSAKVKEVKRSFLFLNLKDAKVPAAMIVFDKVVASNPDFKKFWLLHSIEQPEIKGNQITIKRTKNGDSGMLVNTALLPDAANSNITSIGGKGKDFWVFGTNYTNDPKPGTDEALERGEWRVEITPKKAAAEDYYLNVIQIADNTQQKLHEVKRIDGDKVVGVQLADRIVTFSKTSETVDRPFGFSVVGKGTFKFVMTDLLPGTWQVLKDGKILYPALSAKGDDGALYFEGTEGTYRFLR

[2] = molecular target: heparin lyase II (Pedobacter heparinus, UniProt C6XZB6); assay: GAG degrading enzyme challenge: heparin lyase II; type: in vitro ADME
Description: The synthetic polysaccharide has no possibility of any potential post-polymerization modifications made by Comamonas in vivo that could block the action of the GAG digesting enzymes. Because of this finding, it is believed that while CtTS is able to utilize heparosan as an acceptor molecule due to a hypothetical shared structural feature, this GAG is not the native substrate.

## [-4-D-GlcUA-α1,4-D-GlcNAc-α1-]n [synthetic polysaccharide]
[1]
  sensitivity to degradation by heparin lyase III: insensitive to degradation
[1]; listed as In vitro synthesized polysaccharide
  sensitivity to degradation by heparin lyase III: insensitive to digestion
[2]
  sensitivity to degradation by heparin lyase II: insensitive to degradation

## [-4-D-GlcUA-α1,4-D-GlcNAc-α1-]n [testosteronan]
[2]
  sensitivity to degradation by heparin lyase II: did not digest

Source: patent publication US10273517B2, “Methods of producing testosteronan polymers using testosteronan synthase” (The Board of Regents of the University of Oklahoma, priority 2011, dated 2019)
